The text below walks through data of PubChem BioAssay AID504898 (Southern Research Specialized Biocontainment Screening …, 2011).

The test concerns M. tuberculosis H37Rv growth inhibition, glycerol-free medium. The experiment in a line: Mycobacterium tuberculosis H37Rv growth inhibition, glycerol free medium, confirmatory dose response (AID 504898).

Take `CO[C@H]1/C=C/O[C@@]2(C)Oc3c(C)c(O)c4c(O)c(c(C=NN5CCN(C)CC5)c(O)c4c3C2=O)NC(=O)/C(C)=C\C=C\[C@H](C)[C@H](O)[C@@H](C)[C@@H](O)[C@@H](C)[C@H](OC(C)=O)[C@@H]1C`: the concentration for an effect of 90% (IC90) was 13 nM. For the same molecule, the IC50 (measured here: M. tuberculosis growth IC50) turned out to be 9 nM.
